Results on one compound are retold here after patent publication US20250345446A1 (Draupnir Bio ApS, priority 2022, published 2025).

By UniProt entry, the sequences of proteins in these tests, tags left out. Chains listed by the source or under a name are the forms on record and can include a tag or linker. Residues count along the entry.
UniProt P01375, 77-233 limits assumed: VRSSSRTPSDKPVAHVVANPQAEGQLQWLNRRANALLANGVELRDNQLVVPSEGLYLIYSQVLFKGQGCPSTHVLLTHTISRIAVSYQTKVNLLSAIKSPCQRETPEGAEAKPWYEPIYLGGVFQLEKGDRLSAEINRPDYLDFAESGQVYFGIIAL
UniProt Q99523, 34-756 with tags or gaps V650M: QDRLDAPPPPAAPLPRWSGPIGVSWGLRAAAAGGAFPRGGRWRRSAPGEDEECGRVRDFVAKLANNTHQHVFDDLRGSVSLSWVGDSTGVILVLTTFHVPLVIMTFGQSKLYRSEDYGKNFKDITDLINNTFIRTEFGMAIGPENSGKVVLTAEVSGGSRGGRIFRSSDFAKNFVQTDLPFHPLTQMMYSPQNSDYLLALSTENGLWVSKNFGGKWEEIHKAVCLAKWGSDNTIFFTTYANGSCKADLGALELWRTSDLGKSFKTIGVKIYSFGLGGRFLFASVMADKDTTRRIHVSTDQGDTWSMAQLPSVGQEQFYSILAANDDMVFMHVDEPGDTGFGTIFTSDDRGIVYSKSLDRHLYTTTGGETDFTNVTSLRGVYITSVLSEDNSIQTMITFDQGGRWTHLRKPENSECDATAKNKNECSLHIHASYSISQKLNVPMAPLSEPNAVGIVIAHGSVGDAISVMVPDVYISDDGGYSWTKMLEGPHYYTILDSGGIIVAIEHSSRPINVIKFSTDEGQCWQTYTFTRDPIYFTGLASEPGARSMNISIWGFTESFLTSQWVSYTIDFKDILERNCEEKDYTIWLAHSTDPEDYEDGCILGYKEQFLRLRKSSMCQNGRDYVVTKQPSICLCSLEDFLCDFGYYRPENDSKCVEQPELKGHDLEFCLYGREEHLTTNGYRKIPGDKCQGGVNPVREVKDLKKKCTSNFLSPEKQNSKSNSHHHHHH

The target in one experiment is TNFa-6His (Homo sapiens, UniProt P01375). Put plainly: MST binding to TNFa-6his. The following applies: read-out: KD (score), Kd of TNFalpha binding, Table 8, NTA labeled TNFa-6His (100 nM).
In the next experiment the test system is HEK293/sortilin cells. Put plainly: Remaining TNFalpha in conditioned media (ELISA). The following applies: after 72 h, 20 nM TNFalpha; added TNFalpha (100%) subtracted remaining TNFalpha (%). (In an ELISA, binding on a coated surface is turned into a signal by an enzyme label.)
The target of experiment [1] is soluble ectodomain of sortilin-6his (Homo sapiens, UniProt Q99523, V650M). Put plainly: MST binding to soluble ectodomain of sortilin-6his. The following applies: read-out: KD score, binding to sortilin (Kd), Table 4, small molecule bifunctional compounds.

Molecules are shown by their SMILES.

By Kd is commonly meant the concentration at which binding is half-saturated. For the compound `C[C@@H]1CN(c2ncc(-c3ccc4c(n3)N(Cc3cccnc3C#N)C(C)(C)C4=O)cn2)CCN1C(=O)COCCCCCCCCNC(=O)COc1cccc(Oc2ccc(C(=O)N[C@@H](CCC(C)(C)C)C(=O)O)cn2)c1`, the equilibrium dissociation constant (Kd) at TNFa-6His is greater than 2 µM; in experiment [1], greater than 0.25 µM. Besides, the “Maximum clearance rates of TNFalpha from conditioned media” value in the experiment with HEK293/sortilin cells is given as 39.4%.
